Source: PubChem BioAssay AID1048 (The Scripps Research Institute Molecular Screening Center, 2008)
The entries are a selection whose mix differs from that of the whole data set. Some results for these compounds are left out of this collection, so the calls shown say nothing about other tests. Active and inactive are the calls of the source. Cut-off read from the data, not from the text of the source: active = TR-FRET ratio above about 2000; inactive = the rest.

experiment: TR-FRET detection interference compounds, artefact control for PPARgamma SRC-3 recruitment agonists, biochemical, TR-FRET ratio (AID 1048); details: TR-FRET artefact counter-screen, PPARgamma/SRC-3 format; at 8 µM; active compounds read high

SMILES	TR-FRET ratio
COc1cccc(C(=O)NCC2(N3CCCCC3)CCCCC2)c1	inactive: 1480
O=C(NCC1(N2CCCCC2)CCCCC1)c1cc([N+](=O)[O-])ccc1Cl	inactive: 1510
CN(C)C1CCCC1OC(=O)C(O)(c1ccccc1)c1ccccc1 (stereo unspecified)	inactive: 1550
Cc1ccccc1C(=O)NCC1(N2CCCCC2)CCCCC1	inactive: 1580
C=CCN1CCN(CCOC(=O)C(O)(c2ccccc2)c2ccccc2)CC1	inactive: 1740
CCN1CCCC(OC(=O)C2(O)c3ccccc3C=Cc3ccccc32)C1 (stereo unspecified)	inactive: 1670
